Laboratory results: ChEMBL document CHEMBL3525934 (Drug Metab Dispos, 2013)

Chains of the proteins cited; added tags and fusions are not shown.
UniProt P10635, whole entry: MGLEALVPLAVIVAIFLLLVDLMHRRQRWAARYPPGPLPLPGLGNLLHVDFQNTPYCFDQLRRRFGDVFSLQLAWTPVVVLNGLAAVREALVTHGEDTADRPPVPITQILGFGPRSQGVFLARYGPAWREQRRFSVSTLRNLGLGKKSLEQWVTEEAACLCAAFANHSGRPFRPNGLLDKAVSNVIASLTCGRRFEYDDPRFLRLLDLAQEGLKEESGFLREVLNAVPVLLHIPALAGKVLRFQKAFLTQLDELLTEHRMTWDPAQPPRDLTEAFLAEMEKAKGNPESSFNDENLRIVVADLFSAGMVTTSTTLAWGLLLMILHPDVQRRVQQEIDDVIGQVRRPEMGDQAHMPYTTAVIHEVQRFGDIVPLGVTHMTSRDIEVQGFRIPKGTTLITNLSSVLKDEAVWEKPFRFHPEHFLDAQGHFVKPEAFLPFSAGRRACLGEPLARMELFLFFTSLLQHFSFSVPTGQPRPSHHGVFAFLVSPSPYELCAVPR

How the values were obtained:
Cytochrome P450 2D6 [1] = target: T1, Cytochrome P450 2D6 (Homo sapiens, UniProt P10635); assay: Drug metabolism in supersomes expressing human recombinant CYP2D6 assessed as enzyme-mediated clozapine-N-oxide metabolite formation at 100 uM after 30 mins measured per nmol of P450 by HPLC analysis; format: ADME; settings: 0.5 h
Cytochrome P450 2D6 [2] = target: T1, Cytochrome P450 2D6; assay: Drug metabolism in supersomes expressing human recombinant CYP2D6 assessed as enzyme-mediated total GSH conjugate formation at 100 uM after 30 mins measured per nmol of P450 by HPLC analysis in presence of GSH and hGST P1-1; format: ADME; settings: 0.5 h

## CN1CCN(C2=Nc3cc(Cl)ccc3Nc3ccccc32)CC1 [CLOZAPINE]
Cytochrome P450 2D6 [1]
  Drug metabolism: 1.62 nmol/min
Cytochrome P450 2D6 [2]
  Drug metabolism: 1.6 nmol/min
